Our source for the Ki values is BindingDB's records for PubMed 10688601 (Virginia Commonwealth University, 2000).

Chains of the proteins cited; added tags and fusions are not shown. Lines headed by an entry give the natural chain unless they say otherwise; changes in a name come on top.
UniProt P47936: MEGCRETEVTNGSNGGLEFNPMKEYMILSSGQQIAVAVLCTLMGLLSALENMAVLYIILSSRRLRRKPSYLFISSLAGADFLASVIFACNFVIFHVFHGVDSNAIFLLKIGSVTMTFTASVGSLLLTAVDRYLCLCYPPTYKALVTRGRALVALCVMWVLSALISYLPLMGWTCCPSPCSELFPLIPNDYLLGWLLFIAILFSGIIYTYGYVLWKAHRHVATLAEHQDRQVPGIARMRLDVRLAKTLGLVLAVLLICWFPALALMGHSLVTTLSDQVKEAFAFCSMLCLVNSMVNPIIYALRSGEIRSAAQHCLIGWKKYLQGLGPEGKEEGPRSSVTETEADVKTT

The experiment concerns the target Cannabinoid receptor 2 (Mus musculus, UniProt P47936).

Turning to `Cc1ccc(Cn2nc(C(=O)NC3C(C)(C)C4CC[C@@]3(C)C4)cc2-c2ccc(Cl)c(C)c2)cc1` (stereo partly specified) [N-(1,3,3-trimethylbicyclo(2.2.1)heptan-2-yl)-5-(4-chloro-3-methylphenyl)-1-(4-methylbenzyl)pyrazole-3-carboxamide], the inhibitory constant (Ki) – broadly, the equilibrium dissociation constant of an inhibitor or competing ligand from its target – was 50 pM.
